{"source": "patent US20110081662A1", "about": "“SCREENING METHODS FOR BONE MORPHOGENETIC MIMETICS” (THRASOS THERAPEUTICS, INC., priority 2000, published 2011)", "biological_target": "T1, daf-4 ECD (Caenorhabditis elegans, UniProt P50488)", "T1 construct": "1 includes additional portions on the N and C terminus; made in house; host or cells: transfected DHFR(-) CHO cell line PJ511.9.8, purified from conditioned medium", "T1 sequence (P50488 with tags, fused parts or gaps)": "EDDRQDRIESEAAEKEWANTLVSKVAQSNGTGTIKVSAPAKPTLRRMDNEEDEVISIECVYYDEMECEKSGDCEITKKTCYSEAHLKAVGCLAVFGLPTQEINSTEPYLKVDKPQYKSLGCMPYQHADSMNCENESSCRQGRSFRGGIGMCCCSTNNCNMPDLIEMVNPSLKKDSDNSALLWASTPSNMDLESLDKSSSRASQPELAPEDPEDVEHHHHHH", "experiment": "BMP binding to purified daf-4 ECD (ligand blot, Scatchard analysis)", "set-up": "species or system C. elegans", "experimental": "Purification of daf-4 ECD: A purification protocol to process large volumes of conditioned media (3.5 L/week) was developed. The procedure involves initial isolation of daf-4 ECD by using Talon (Pharmacia Tech.) Immobilized metal affinity column. As daf-4 ECD protein is linked to a hexa-His sequence, the protein is bound to the metal affinity column and is subsequently eluted by imidazoic (120 nM) containing buffer. The pooled fractions from the metal affinity column were further purified by gel filtration chromatography on Sephacryl S-200 column to remove contaminating components of very high molecular weight. The active protein eluted from Sephacryl column was purified by reversed phase HPLC using C18 column with a linear gradient of 20% to 90% of acetonitrile and 0.075% TFA. An estimated yield of highly purified daf-4 ECD from each batch of 3.5 L conditioned medium is approximately 1.5 to 2 mg. The purified preparation was analyzed by reversed phase HPLC. […] A novel ligand-blot technique was developed to evaluate the binding of BMP-7 to the purified daf-4 ECD. Upon ligand blotting with ^125I-labeled BMP-7, the ligand effectively bound to daf-4 ECD and identified two closely migrated bands. daf-4 ECD is heavily glycosylated, and differences in the carbohydrate composition of its components may contribute to the observed molecular heterogeneity of the daf-4 ECD preparations. […]"}
{"substance": "BMP-2: bone morphogenetic protein", "values": [{"measurement": "binding to extracellular domain of daf-4", "value": "readily binds"}]}
